The source of these data is ChEMBL document CHEMBL4177633, “Novel analogs of PSNCBAM-1 as allosteric modulators of cannabinoid CB1 receptor” (Bioorg Med Chem, 2017).

Amino acid sequences for entries named in this document (tags omitted).
UniProt P21554, whole entry: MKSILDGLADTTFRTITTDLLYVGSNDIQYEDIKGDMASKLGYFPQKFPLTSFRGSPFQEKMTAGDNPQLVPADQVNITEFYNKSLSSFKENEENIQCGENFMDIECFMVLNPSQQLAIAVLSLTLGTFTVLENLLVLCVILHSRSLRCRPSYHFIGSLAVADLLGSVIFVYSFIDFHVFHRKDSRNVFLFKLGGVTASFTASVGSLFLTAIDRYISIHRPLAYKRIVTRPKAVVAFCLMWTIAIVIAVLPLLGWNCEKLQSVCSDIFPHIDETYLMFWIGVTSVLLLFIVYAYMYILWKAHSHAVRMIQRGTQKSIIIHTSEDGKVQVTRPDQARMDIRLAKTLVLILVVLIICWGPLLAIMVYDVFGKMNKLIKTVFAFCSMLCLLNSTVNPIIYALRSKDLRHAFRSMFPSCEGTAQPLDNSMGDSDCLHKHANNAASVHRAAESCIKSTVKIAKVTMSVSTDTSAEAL

Structures are written as SMILES.

For test [1], the target named is T1, Cannabinoid receptor 1 (Homo sapiens, UniProt P21554). The test can be described thus: Positive allosteric modulation of human CB1 receptor expressed in CHO-K1 cell membranes assessed as induction of [3H]CP55,940 binding after 1.5 hrs by liquid scintillation counting assay. Type of test: functional.
For test [2], the target named is T1, Cannabinoid receptor 1. The test can be described thus: Negative allosteric modulation of human CB1 receptor expressed in HEK293 cells assessed as inhibition of 33 nM CP55,940-induced SRE transcriptional activity after 5 hrs by luciferase reporter gene assay. Type of test: functional, cell-based. An outline of the steps: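 HEK293 cells transiently co-transfected with hCB1R (5 ng/well) and pGL4.33 luc2P/SRE reporter (100 ng/well) by lipofection, seeded at 60,000 cells/well. After 5 h, switched to 1% FBS/DMEM overnight. Ligands added for 5 h at 37 °C in serum-free DMEM. Cells lysed 10 min at room temperature, luciferin injected, luminescence read. Sigmoidal nonlinear regression fit; mean with 95% CI, n = 3.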
On the technique in general: Reporter assays use an easily measured gene product as a stand-in for the process of interest.

One may read the EC50 as the concentration that produces a half-maximal response. What is called IC50 is the concentration that inhibits the measured activity by half. As for `O=C(Nc1ccc(Cl)cc1)Nc1cccc(-c2cccc(N3CCCC3)n2)c1`, the EC50 at Cannabinoid receptor 1 [1] worked out at 0.27 µM. For the same molecule, the half-maximal inhibitory concentration (IC50) on Cannabinoid receptor 1 [2] was 0.23 µM.
